# Patent US12539292B2, “BRM targeting compounds and associated methods of use” (Arvinas Operations, Inc., priority 2018, dated 2026)
# Chains of the proteins cited; added tags and fusions are not shown.
# UniProt P51531, whole entry: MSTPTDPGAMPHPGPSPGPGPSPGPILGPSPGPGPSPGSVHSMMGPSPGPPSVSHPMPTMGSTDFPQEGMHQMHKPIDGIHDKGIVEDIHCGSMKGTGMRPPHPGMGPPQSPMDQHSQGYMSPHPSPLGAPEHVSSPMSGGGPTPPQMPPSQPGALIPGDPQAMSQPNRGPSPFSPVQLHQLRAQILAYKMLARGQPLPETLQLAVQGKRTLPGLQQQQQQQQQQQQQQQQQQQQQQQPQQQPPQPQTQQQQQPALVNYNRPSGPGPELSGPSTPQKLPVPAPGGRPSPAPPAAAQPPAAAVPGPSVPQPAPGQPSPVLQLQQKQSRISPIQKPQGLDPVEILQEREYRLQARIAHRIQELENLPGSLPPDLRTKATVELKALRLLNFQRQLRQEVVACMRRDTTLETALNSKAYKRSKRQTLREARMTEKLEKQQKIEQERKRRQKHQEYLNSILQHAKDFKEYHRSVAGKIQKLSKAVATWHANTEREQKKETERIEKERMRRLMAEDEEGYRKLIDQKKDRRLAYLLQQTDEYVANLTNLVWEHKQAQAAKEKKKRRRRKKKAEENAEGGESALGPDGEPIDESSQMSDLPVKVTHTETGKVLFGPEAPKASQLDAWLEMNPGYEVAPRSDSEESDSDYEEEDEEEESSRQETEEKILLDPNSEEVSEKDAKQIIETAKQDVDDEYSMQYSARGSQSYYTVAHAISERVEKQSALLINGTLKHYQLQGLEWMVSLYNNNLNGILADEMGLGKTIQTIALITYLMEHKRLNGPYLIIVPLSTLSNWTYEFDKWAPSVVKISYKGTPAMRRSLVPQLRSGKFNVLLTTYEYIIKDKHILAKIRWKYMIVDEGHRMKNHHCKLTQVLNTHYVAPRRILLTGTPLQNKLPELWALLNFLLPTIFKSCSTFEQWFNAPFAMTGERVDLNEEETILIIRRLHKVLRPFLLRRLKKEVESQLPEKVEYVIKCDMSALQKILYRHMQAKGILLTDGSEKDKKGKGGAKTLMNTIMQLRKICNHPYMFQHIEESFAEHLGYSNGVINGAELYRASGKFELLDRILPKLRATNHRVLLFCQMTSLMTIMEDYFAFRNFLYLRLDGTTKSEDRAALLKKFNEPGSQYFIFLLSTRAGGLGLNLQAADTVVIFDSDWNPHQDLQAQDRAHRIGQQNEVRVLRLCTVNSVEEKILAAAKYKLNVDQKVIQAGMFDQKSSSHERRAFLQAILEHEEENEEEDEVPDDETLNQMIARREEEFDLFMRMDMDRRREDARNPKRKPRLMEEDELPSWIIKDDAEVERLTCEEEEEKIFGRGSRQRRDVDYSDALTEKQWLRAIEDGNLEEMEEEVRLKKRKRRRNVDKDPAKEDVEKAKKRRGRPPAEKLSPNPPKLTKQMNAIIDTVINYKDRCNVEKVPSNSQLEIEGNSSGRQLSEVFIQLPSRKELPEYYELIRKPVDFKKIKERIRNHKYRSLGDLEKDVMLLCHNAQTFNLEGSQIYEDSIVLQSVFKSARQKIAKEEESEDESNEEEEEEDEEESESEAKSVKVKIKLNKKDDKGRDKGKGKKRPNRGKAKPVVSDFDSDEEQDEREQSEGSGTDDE
# Molecular target: T1, BRM (Homo sapiens, UniProt P51531)
# T1 construct: In-Cell Western Screen of BRM Degradation in SW1573 Cells; endogenous in cells; host or cells: SW1573
# Experiment: In-cell Western screen of BRM degradation in SW1573 cells (Dmax and DC50)
# Format: cell-based
# Experimental: In-Cell Western Screen of BRM Degradation in SW1573 Cells
# To assess BRM degradation (Dmax and DC50), cells were seeded at 8000/well in 96-well black/clear-bottom plates in 180 μL DMEM growth media (containing 1% pen-strep, 1% HEPES and 10% FBS) per well. Plates were incubated overnight to allow adhesion. The next morning cells were treated by adding 20 μL of 10× compound (1% DMSO) to appropriate wells and returned to incubator for overnight (18-20 hours). The final DMSO concentration was 0.1%.
# For processing, the plates were removed from incubator, the media was removed, and immediately 200 μL of cold (4° C.) DPBS was added to all wells. DPBS was then removed, and 50 μL of 4% paraformaldehyde (PFA) in DPBS (4° C.) was added to all wells, and the plates were incubated at room temperature for 20 minutes. PFA was then removed, and 200 μL of TBS-T containing 0.5% Triton X-100 was added to all wells, and the plates were incubated at room temperature for 30 minutes. […]
# To read each plate TBS-T was removed, and each plate was inverted tapped on a paper towel. The plates were read on the LI-COR Odyssey with default intensity settings of 5.0 for both channels. LI-COR images were analyzed with the in-cell Western feature of Image Studio Lite.
Compound,"Dmax (SW1573, read-out: Dmax (% degraded)) [%]",DC50 (target protein degradation) [nM]
"Cc1ncsc1-c1ccc([C@H](C)NC(=O)[C@@H]2C[C@@H](O)CN2C(=O)[C@@H](c2cc(N3CCC(CN4CCC(O[C@H]5C[C@H](Oc6cc(N7CCN(c8cc(-c9ccccc9O)nnc8N)CC7)ccn6)C5)CC4)CC3)no2)C(C)C)cc1 [compound 693, (2S,4R)-1-((R)-2-(3-(4-((4-((1r,3r)-3-((4-(4-(3-amino-6-(2-hydroxyphenyl)pyridazin-4-yl)piperazin-1-yl)pyridin-2-yl)oxy)cyclobutoxy)piperidin-1-yl)methyl)piperidin-1-yl)isoxazol-5-yl)-3-methylbutanoyl)-4-hydroxy-N-((S)-1-(4-(4-methylthiazol-5-yl)phenyl)ethyl)pyrrolidine-2-carboxamide]",> 75,
"(2S,4R)-1-((2S)-2-(3-(2-(4-((1r,3S)-3-(3-(3-(3- amino-6-(2-hydroxyphenyl)pyridazin-4-yl)-3,8- diazabicyclo[3.2.1]octan-8- yl)phenoxy)cyclobutoxy)piperidin-1- yl)ethoxy)isoxazol-5-yl)-3-methylbutanoyl)-4- hydroxy-N-((S)-1-(4-(4-methylthiazol-5- yl)phenyl)ethyl)pyrrolidine-2-carboxamide [compound 461]",,> 30
